The entries are a selection whose mix differs from that of the whole data set. Some tests of the compounds listed are not included; inactive here does not mean inactive elsewhere. Calls of active or inactive are those of the source. Calls come from the whole dose curve; as a rule, active = well fitted inhibition curve with a large enough effect; inconclusive = small, poorly fitted or top-dose-only effect; inactive = no such curve, though single readings can be large or run the other way.
% is set by controls: 0 for no effect and ±100 for the full control effect.

Sequences of proteins named here, by UniProt entry; tags and fusion partners are left off.
UniProt O15296, whole entry: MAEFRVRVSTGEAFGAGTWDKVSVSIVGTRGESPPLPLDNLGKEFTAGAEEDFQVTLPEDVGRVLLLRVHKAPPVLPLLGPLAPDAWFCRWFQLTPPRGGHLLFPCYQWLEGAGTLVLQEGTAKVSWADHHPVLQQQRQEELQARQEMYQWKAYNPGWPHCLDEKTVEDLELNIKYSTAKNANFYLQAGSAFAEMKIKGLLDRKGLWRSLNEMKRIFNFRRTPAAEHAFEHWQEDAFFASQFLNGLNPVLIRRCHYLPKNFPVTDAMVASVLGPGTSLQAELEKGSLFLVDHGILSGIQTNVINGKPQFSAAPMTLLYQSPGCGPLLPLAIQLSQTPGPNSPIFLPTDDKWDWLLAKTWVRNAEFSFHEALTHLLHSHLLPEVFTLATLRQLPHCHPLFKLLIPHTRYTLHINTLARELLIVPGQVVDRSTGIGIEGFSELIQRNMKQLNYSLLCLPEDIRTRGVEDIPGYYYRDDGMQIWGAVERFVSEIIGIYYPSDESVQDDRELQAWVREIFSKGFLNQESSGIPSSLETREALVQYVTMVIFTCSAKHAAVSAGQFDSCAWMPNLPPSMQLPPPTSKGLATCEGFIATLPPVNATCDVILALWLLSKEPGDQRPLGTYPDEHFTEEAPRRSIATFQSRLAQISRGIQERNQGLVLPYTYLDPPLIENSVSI

The target of this assay is Polyunsaturated fatty acid lipoxygenase ALOX15B (Homo sapiens) (UniProt O15296). Nature of the assay: qHTS Assay for Inhibitors of 15-hLO-2 (15-human lipoxygenase 2). Note: nearly all actives have a fitted effect of over 60% in size. To be noted: purified 15hLO-2, xylenol orange hydroperoxide absorbance; at 11.4 µM unless noted. From the text: Assay Overview: NIH Molecular Libraries Screening Centers Network [MLSCN] NIH Chemical Genomics Center [NCGC] MLSCN Grant: MH081283-01A1 PI Name: Holman, T.R., University of California, Santa Cruz Human lipoxygenase 15hLO-2 is a member of the closely related lipoxygenase family of enzymes which catalyze the site-specific oxidation of arachidonic acid to various hormone precursor molecules and as such is a candidate for drug development in a variety of disease areas, such as cancer and inflammation. Inhibition of 15hLO-2 activity was screened by utilizing arachidonic acid as a substrate. The extent of hydroperoxide product formation was measured by a secondary chromogenic reaction in which xylenol orange (XO, Sigma-Aldrich, cat. number 39,818-7) reacts with the ferric ions produced from the reaction between the hydroperoxide and ferrous ions. The Fe(III)-XO complex is characterized with red-shifted absorbance at 560 nm. A purified preparation of human 15hLO-2 was supplied by Professor Ted Holman, University of California, Santa Cruz.
Assay Protocol: Buffer: 25 mM Hepes pH 7.5, 0.01% Triton X-100. Reagents/Controls: Buffer in columns 3 and 4 as negative control (no enzyme). Substrate solution: 45 uM arachidonic acid (Sigma-Aldrich, St. Louis, MO) final concentration dispensed throughout the plate. Enzyme: 50 nM 15hLO-2 final concentration in columns 1, 2, 5-48. Column 1 is neutral (100% activity). Column 2 contained pin-transferred titration of NDGA (nordihidroguaiaretic acid, Sigma-Aldrich, N 5023, top concentration 10 mM in DMSO, then 1:2 dilution in duplicate). (Dilution factor: 23 nL into 4 uL.) Chromogenic detection reagent (divalent iron/xylenol orange, Fe-XO): 200 uM xylenol orange plus 300 uM ferrous ammonium sulfate prepared freshly in 50 mM sulfuric acid. Assay Steps: Three uL of enzyme were dispensed to 1536-well Greiner black clear bottom plates. Compounds and controls (23 nL) were transferred via Kalypsys PinTool. The plates were incubated for 15 min at room temperature, and then 1 uL of substrate solution was added to start the reaction. After room temperature incubation for 90 minutes, 4 uL of Fe-XO solution was added to each well followed by a short spin (1000 rpm, 15 sec) and the plates were then incubated for 30 min. The absorbance at 405 and 573 nm were measured using ViewLux (Perkin-Elmer) High-throughput CCD imager and absorbance protocol settings. The 573-to-405 absorbance ratio was used to compute reaction progress.
For `C=C(C)C#C[C@@](O)(C(=O)OC1CCN(C)CC1)c1ccccc1`, the activity change, negative = inhibition is inactive: -1.29%.

Turning to `CN1CC[C@H](OC(=O)[C@](O)(c2ccccc2)C2CCCC2)C1`, the activity change, negative = inhibition is inactive: -1.44%.

Consider `O=C(OC1CN2CCC1CC2)C(CO)(c1ccccc1)c1ccccc1` (stereo unspecified), for which the activity change, negative = inhibition was inactive: 2.04% [at 2.29 µM].

As to `CN1CCC[C@H](OC(=O)[C@](O)(c2ccccc2)C2CCCC2)C1`, the activity change, negative = inhibition was inactive: -3.1%.

As for `CN(C)c1cccc(C(=O)NCC2(N(C)C)CCCCC2)c1`, the activity change, negative = inhibition was inactive: 6.51% [at 57.1 µM].

In the case of `CC(C)N1C(=O)CC2(CCN(CCOC(=O)C(O)(c3ccccc3)c3ccccc3)CC2)C1=O`, the activity change, negative = inhibition is inactive: 8.15% [at 57.1 µM].
